Measurements taken from article PMC5780510, “Insights into the molecular mechanism of dehalogenation catalyzed by D-2-haloacid dehalogenase from crystal structures” (Scientific Reports, 2018).

Tests used:
C[C@@H](Cl)C(=O)O = assay: purified protein; conditions: 100 mM glycine-NaOH pH 10.0, 30 °C
[1] = biological target: HadD AJ1 (D-2-haloacid dehalogenase, D-DEX) (Pseudomonas putida, UniProt Q52086); conditions: co-crystallised with 2 mM D-2-CPA, MES pH 6.43, 277 K; product bound in active site
purified protein = substrate: C[C@@H](Cl)C(=O)O; assay: purified protein; conditions: 100 mM glycine-NaOH pH 10.0, 30 °C; remark: listed apart in the source

| Molecule | Km (C[C@@H](Cl)C(=O)O) | kcat (C[C@@H](Cl)C(=O)O) | X-ray crystal structure, 2.18 Å [1] | Km (purified protein) | kcat (purified protein) |
| --- | --- | --- | --- | --- | --- |
| HadD AJ1 (D-2-haloacid dehalogenase, D-DEX) (Pseudomonas putida; N203A) | 12.00 mM | 0.59 s⁻¹ |  |  |  |
| C[C@H](O)C(=O)O [L-LA, L-lactic acid] |  |  | HadD AJ1 was able to bind the product L-LA in the active site |  |  |
| HadD AJ1 (D-2-haloacid dehalogenase, D-DEX) (Pseudomonas putida; V51F) | 2.90 mM | 12.6 s⁻¹ |  |  |  |
| HadD AJ1 (D-2-haloacid dehalogenase, D-DEX) (Pseudomonas putida; D205E) | 4.13 mM | 5.5 s⁻¹ |  |  |  |
| D-2-haloacid dehalogenase HadD AJ1 from Pseudomonas putida AJ1/23, wild type (enzyme, D-2-haloacid dehalogenase HadD AJ1, Pseudomonas putida strain AJ1/23; the 909 bp hadd aj1 gene (ENA AAA25831.1) subcloned into pET-28a between NcoI and XhoI; Homotetramer in the crystal; it gives no residue limits; also called WT; D-DEX) MNLPDNSIHLQLPRPVCEAIIRPVPEHRADQELSEIYRDLKATFGVPWVGVITQAVAYYRPFFAEAWRRFAPSAKTHFFERASDDIRIRSWELMGQSFVIEGQTDRLREMGYSVREIGQIRAVLDIFDYGNPKYLIFATAIKEGLLSGRTFGGAAGDARCHFPRSPICQIDPIPVMVEEHHAGGTLSQVYADIKQTLQLPFINSDYKAMARWPSYLEQAWGALKPCIDTPAYQAGRFDINARALAALDALPTAYRMSRDDALQAGLSEAQTDELIQVISLFQWMLSGLVLNVTHFKQQALK |  |  |  | 0.94 mM | 16.4 s⁻¹ |
